Patent US8008312B2, “CXCR4 antagonists for the treatment of HIV infection” (Emory University, priority 2005, dated 2011)

Chains of the proteins cited; added tags and fusions are not shown.
UniProt P61073, whole entry: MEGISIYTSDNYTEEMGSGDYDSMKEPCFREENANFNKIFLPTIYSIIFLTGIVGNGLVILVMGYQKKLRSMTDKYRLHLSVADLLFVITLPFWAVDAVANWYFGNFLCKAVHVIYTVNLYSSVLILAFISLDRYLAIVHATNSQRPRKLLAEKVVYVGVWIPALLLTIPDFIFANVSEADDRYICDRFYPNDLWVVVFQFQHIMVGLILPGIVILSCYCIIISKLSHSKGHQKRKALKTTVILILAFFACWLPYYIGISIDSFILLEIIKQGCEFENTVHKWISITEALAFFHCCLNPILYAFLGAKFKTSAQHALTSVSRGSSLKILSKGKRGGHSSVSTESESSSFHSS

Target: CXCR4 (Homo sapiens, UniProt P61073)
Assay: Competition screening using the native CXCR4 ligand SDF-1
Format: binding
Conditions: competition with SDF-1

Question: For `c1ccc(NCc2cccc(CNc3ccccn3)c2)nc1` [drawing 207], which IC50 is on record?
Answer: < 10 nM
